# Reference: article PMC7429481 (British Journal of Pharmacology, 2020)
# By UniProt entry, the sequences of proteins in these tests, tags left out. Residues count along the entry.
# UniProt P25101, 21-427: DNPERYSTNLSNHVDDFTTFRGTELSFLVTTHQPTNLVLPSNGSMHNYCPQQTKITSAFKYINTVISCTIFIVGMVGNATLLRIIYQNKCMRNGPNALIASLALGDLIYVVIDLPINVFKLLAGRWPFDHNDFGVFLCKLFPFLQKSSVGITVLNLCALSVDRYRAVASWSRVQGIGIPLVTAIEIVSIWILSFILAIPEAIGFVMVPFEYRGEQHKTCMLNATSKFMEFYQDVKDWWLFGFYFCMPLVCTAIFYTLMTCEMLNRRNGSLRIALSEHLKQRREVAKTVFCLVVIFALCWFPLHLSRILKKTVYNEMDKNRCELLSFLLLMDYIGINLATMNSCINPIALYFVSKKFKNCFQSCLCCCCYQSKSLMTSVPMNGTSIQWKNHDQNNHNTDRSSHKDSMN
# Biological target: SmBiT‐tagged endothelin A receptor (Homo sapiens, UniProt P25101)
# Assay: mini‐Gq recruitment to endothelin A receptor by NanoBiT complementation
# Settings: ET1 1 µM, HEK293T, n = 4
substance,measurement,value
endothelin‐1,mini‐Gq recruitment response to endothelin A receptor,robust
